Assay results as given in patent US9212180B2 (priority 2013, dated 2015).

Sequences of proteins named here, by UniProt entry; tags and fusion partners are left off.
UniProt O00255, whole entry: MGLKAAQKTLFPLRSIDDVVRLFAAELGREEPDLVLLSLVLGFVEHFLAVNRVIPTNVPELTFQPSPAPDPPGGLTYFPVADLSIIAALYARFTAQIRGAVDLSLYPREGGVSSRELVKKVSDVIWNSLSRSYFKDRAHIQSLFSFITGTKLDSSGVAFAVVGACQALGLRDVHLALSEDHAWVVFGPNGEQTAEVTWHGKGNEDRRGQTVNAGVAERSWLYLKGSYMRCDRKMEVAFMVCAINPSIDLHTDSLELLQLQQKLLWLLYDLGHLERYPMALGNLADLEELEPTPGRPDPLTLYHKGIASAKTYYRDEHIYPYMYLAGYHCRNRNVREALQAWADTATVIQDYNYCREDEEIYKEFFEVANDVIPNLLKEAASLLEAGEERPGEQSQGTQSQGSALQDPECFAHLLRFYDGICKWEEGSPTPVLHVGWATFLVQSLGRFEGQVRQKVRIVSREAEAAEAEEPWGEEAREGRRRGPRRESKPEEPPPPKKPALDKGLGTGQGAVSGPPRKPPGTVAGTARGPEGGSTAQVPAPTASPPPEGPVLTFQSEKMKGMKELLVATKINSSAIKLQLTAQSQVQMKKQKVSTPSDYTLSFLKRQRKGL

Biological target: menin-MLL interaction (Homo sapiens, UniProt O00255)
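Note: fluorescence polarization competition assay, inhibitors lower the fluorescence anisotropy signal, IC50 taken from this drop.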

## NCc1ccc(OCCCN2CCC(C(O)(c3ccccc3)c3ccccc3)CC2)cc1
  IC50: 7.6 µM
